Water solubility values, as collected for the OPERA models

Water solubility is log10 of mol/L, nominally at 25 °C; higher is more soluble.
Cells with "–" have no entry in this list.

SMILES	name	log solubility (log10 mol/L)
O=C(O)[C@H]1/C(=C/CO)O[C@@H]2CC(=O)N21	Clavulanic acid	0.179
CC(C)(C)CC(C)(C)SSSC(C)(C)CC(C)(C)C	Bis(2,4,4-trimethyl-2-pentanyl)trisulfane	-7.208
CCN(CC)C(=O)CCC(=O)OCn1ncc2c(O)ncnc21	–	-0.988
C=CCOC(=O)C(C)(C)OC(=O)c1cc([N+](=O)[O-])ccc1Cl	–	-4.436
O=C(O)c1ccc2cc(O)ccc2c1	6-Hydroxy-2-naphthoic acid	-3.279
N#CCN(CC#N)CCN(CC#N)CC#N	(Ethylenedinitrilo)tetraacetonitrile	-2.852
O=C(O[C@@H]1C[C@@H]2C[C@@H]3C[C@H](C1)N2CC3=O)c1c[nH]c2ccccc12	Dolasetron	-3.094
Cc1ccc2oc(C=Cc3nc4cc(C)ccc4o3)nc2c1	Benzoxazole, 2,2'-(1,2-ethenediyl)bis[5-methyl-	-6
O=C(O)[C@H]1CC[C@H](C(=O)O)CC1	trans-1,4-Cyclohexanedicarboxylic acid	-2.333
C[C@H](CCC(=O)NCC(=O)O)[C@H]1CC[C@H]2[C@@H]3[C@@H](O)C[C@@H]4C[C@H](O)CC[C@]4(C)[C@H]3CC[C@]12C	Glycoursodeoxycholic acid	-5.339
CC=C(Cc1ccccc1)C(=O)O	2-Benzyl-crotonic acid	-2.565
Nc1nc(N)c2nc(CNc3ccc(C(=O)N[C@@H](CCC(=O)O)C(=O)O)cc3)cnc2n1	Aminopterin	-2.167
CC1CC=C(C(=O)O)C(C)O1 (stereo not drawn)	2,6-Dimethyl-5,6-dihydro-2H-pyran-3-carboxylic acid	-0.796
Cc1oncc1C(=O)Nc1ccc(C(F)(F)F)cc1	Leflunomide	-3.505
CC[C@H]1OC(=O)[C@H](C)[C@@H](O[C@H]2C[C@@](C)(OC)[C@@H](O)[C@H](C)O2)[C@H](C)[C@@H](O[C@@H]2O[C@H](C)C[C@H](N(C)C)[C@H]2O)[C@](C)(O)C[C@@H](C)C(=O)[C@H](C)[C@@H](O)[C@]1(C)O	Erythromycin	-4.43
CCCCCCCCCCCCS	1-Dodecanethiol	-7.574
O=CCCCC=O	Glutaraldehyde	0.223
O=C(O)COc1ccc(Cl)c2cccnc12	2-[(5-Chloro-8-quinolinyl)oxy]acetic acid	-1.882
O=C(CCCN1CC=C(n2c(=O)[nH]c3ccccc32)CC1)c1ccc(F)cc1	Droperidol	-3.587
O=c1[nH]c(=O)c2[nH]cnc(=O)c2[nH]1	–	-3.911
Clc1cc(Cl)c(Cl)c(Oc2ccc(Cl)c(Cl)c2)c1	2,3,3',4',5-Pentachlorodiphenylether	-7.83
O=C1CCCCCN1SSN1CCCCCC1=O	1,1'-Disulfanediyldiazepan-2-one	-2.314
CCCCCCCCNC(=O)Nc1ccc(Cc2ccc(NC(=O)NCCCCCCCC)cc2)cc1	N,N'-[Methylenedi(4,1-phenylene)]bis(N'-octylurea)	-8.225
S=C(SN1CCOCC1)N1CCOCC1	4-((Morpholinothio)thioxomethyl)morpholine	-3.291
Clc1ccc(Oc2c(Cl)cc(Cl)cc2Cl)c(Cl)c1	2,2',4,4',6-Pentachlorodiphenyl ether	-7.33
CC(C)(C)c1n[nH]c(=O)[nH]c1=O	Metribuzin-DADK	-1.5
Cc1cc(/N=N/c2c(O)ccc3ccccc23)c(S(=O)(=O)[O-])cc1Cl.Cc1cc(/N=N/c2c(O)ccc3ccccc23)c(S(=O)(=O)[O-])cc1Cl.[Ba+2]	C.I. Pigment Red 53	-5.688
O=[N+]([O-])C1(Br)COCOC1	5-Bromo-5-nitro-1,3-dioxane	-1.648
O=[N+]([O-])c1ccc(/N=N/c2c([O-])ccc3ccccc23)c([O-])c1.O=[N+]([O-])c1ccc(/N=N/c2c([O-])ccc3ccccc23)c([O-])c1.[Cr+3].[Na+]	Disperse Grey SMP	-4.477
COc1cc(-c2ccc(/N=N/c3ccc4c(S(=O)(=O)[O-])cc(S(=O)(=O)[O-])c(N)c4c3O)c(OC)c2)ccc1/N=N/c1ccc2c(S(=O)(=O)[O-])cc(S(=O)(=O)[O-])c(N)c2c1O.[Na+].[Na+].[Na+].[Na+]	C.I. Direct Blue 1	-1.395
N.N.O=C([O-])CC(C(=O)[O-])C(=O)[O-].[H+].[Pt+2]	–	-1.59
CCCCCCCCOC(=O)C(C)OC(C)=O (stereo not drawn)	octyl 2-acetyloxypropanoate	-0.91
CCCCCCCCC(=O)OCC(COC(=O)CCCCCCCC)OC(=O)CCCCCCCC	Tripelargonin	-6.74
CC(C)CC1CC(C)CCO1 (stereo not drawn)	2-Isobutyl-4-methyltetrahydro-2H-pyran	-3.08
O=c1c2ccccc2c2cc3ccc4c(=O)c5c(Br)c(Br)ccc5c5cc6ccc1c2c6c3c45	Dibromopyranthrene-8,16-dione	-4.45
C=CCCC(=O)CC1CC2CCC1C2 (stereo not drawn)	–	-3.682
CC1=CC2C(C=O)CC1CC2C(C)C (stereo not drawn)	–	-3.851
O=C1CCC(C(=O)Nc2ccccc2)N1 (stereo not drawn)	5-Oxo-N-phenylpyrrolidine-2-carboxamide	-1.328
O=C(N[C@H](C(=O)O)c1ccccc1)c1ccccc1	N-Benzoyl-(S)-phenylglycine	-2.246
N#Cc1ccc(Nc2nc(O)cc(=O)[nH]2)cc1	–	-4.58
O=C(NCc1ncc(C(F)(F)F)cc1Cl)c1c(Cl)cccc1Cl	Fluopicolide	-5.14
COc1cc(C(=O)NS(=O)(=O)c2ccccc2C)ccc1Cc1cn(C)c2ccc(NC(=O)OC3CCCC3)cc12	Zafirlukast	-5.777

The 6 highest values of log solubility among the entries above:

SMILES	name	log solubility (log10 mol/L)
O=CCCCC=O	Glutaraldehyde	0.223
O=C(O)[C@H]1/C(=C/CO)O[C@@H]2CC(=O)N21	Clavulanic acid	0.179
CC1CC=C(C(=O)O)C(C)O1 (stereo not drawn)	2,6-Dimethyl-5,6-dihydro-2H-pyran-3-carboxylic acid	-0.796
CCCCCCCCOC(=O)C(C)OC(C)=O (stereo not drawn)	octyl 2-acetyloxypropanoate	-0.91
CCN(CC)C(=O)CCC(=O)OCn1ncc2c(O)ncnc21	–	-0.988
O=C1CCC(C(=O)Nc2ccccc2)N1 (stereo not drawn)	5-Oxo-N-phenylpyrrolidine-2-carboxamide	-1.328

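The OPERA project collected these measurements from public sources as training and test data for property models. One number stands for a compound and property, with no spread given. How each value was measured is not recorded, so precision varies. Where a salt, mixture or single isomer is drawn, the source does not say that exactly this form was tested. Some upstream entries may be estimates or bounds without being marked so.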

Values as listed in the OPERA 2.9 repository of K. Mansouri.